This is an account of results in BindingDB's records for doi:10.1021/acs.jmedchem.6b01578 (University of Bologna, 2017).

In general, EC50 refers to the concentration at which the effect is half-maximal.

This experiment is described as follows: Agonist activity at recombinant human CB1 receptor expressed in CHO-K1 cells assessed as increase in cAMP accumulation after 20 mins by HTRF assay. Background: Cyclic AMP is a second messenger, typically raised through Gs and lowered through Gi signalling.

SMILES strings stand for the structures.

With `NC(=O)c1cccc(-c2ccc(OC(=O)NCCCCN3CCN(c4cccc(Cl)c4Cl)CC3)cc2F)c1`, the concentration giving a half-maximal response (EC50) was 15 nM.
